# How the values were obtained:
# Chains of the proteins cited; added tags and fusions are not shown.
# UniProt P30536, whole entry: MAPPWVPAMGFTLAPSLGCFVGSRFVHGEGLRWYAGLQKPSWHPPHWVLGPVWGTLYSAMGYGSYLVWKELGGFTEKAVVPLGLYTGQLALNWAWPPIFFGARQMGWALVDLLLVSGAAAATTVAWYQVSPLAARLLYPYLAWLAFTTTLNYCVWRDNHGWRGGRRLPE
# Translocator protein [1] = target: T1, Translocator protein (Homo sapiens, UniProt P30536); test: Displacement of [3H]PK11195 from human TSPO A147T mutant expressed in HEK293 cells after 90 mins by scintillation counting method; type: cell-based
# Summary of the method: (§1)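 Intact stably transfected HEK293 cells detached with PBS/0.04% EDTA (5 min, 37 °C), resuspended in 50 mM Tris-HCl; 1x10^6 cells incubated with competitor and 10 nM [3H]PK 11195, otherwise as membrane assay (90 min, 4 °C, 1 µM PK 11195 nonspecific, filtration, scintillation).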
# Translocator protein [2] = target: T1, Translocator protein; test: Displacement of [3H]PK11195 from wild-type human TSPO expressed in HEK293 cell membranes after 90 mins by scintillation counting method
# Summary of the method: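 Membranes from stably transfected HEK293 cells (PBS/0.04% EDTA detachment, homogenised in Tris-HCl, washed by 48000 g spins), 20 µg protein/well for WT or 10 µg/well for A147T, incubated with 10 nM [3H]PK 11195 and competitor at log-spaced 3.1 nM–10 µM, 90 min, 4 °C.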
# Translocator protein [3] = target: T1, Translocator protein; test: Displacement of [3H]PK11195 from wild-type human TSPO expressed in HEK293 cells after 90 mins by scintillation counting method; type: cell-based; summary of the method: as §1
smiles,measurement,setting,value
CC[C@@H](C)N(C)C(=O)c1cc2ccccc2c(-c2ccccc2Cl)n1 [(R)PK-11195],Ki,Translocator protein [1],31.5 nM
same,Ki,Translocator protein [2],22.5 nM
same,Ki,Translocator protein [3],13.6 nM

# Reference: ChEMBL document CHEMBL4334481, “First Nondiscriminating Translocator Protein Ligands Produced from a Carbazole Scaffold” (J Med Chem, 2019)
